Activity data for one sequence are collected here from ChEMBL document CHEMBL1687751, “Atomic force microscopy investigation of the morphology and topography of colistin-heteroresistant Acinetobacter baumannii strains as a function of growth phase and in response to colistin treatment” (Antimicrob Agents Chemother, 2009).

Common to all, as to format: functional, organism-based
Assay [1] relates to Acinetobacter baumannii. Nature of the assay: Effect on morphological changes in colistin-susceptible Acinetobacter baumannii ATCC 19606 assessed as change in length of cellular dimension at mid-log phase at 32 ug/ml after 20 mins by atomic force microscopic analysis.
Assay [2] relates to Acinetobacter baumannii. Kind of assay: Effect on morphological changes in colistin-susceptible Acinetobacter baumannii ATCC 19606 assessed as change in average root mean squared surface roughness at mid-log phase at 0.5 ug/ml after 20 mins by atomic force microscopic analysis.
Assay [3] relates to Acinetobacter baumannii. Nature of the assay: Effect on morphological changes in colistin-susceptible Acinetobacter baumannii ATCC 19606 assessed as change in average root mean squared surface roughness at stationary phase at 32 ug/ml after 20 mins by atomic force microscopic analysis.
Assay [4] concerns Acinetobacter baumannii. Kind of assay: Effect on morphological changes in colistin-susceptible Acinetobacter baumannii ATCC 19606 assessed as change in width of cellular dimension at mid-log phase at 0.5 ug/ml after 20 mins by atomic force microscopic analysis.
Assay [5] has as its system Acinetobacter baumannii. Kind of assay: Effect on morphological changes in colistin-susceptible Acinetobacter baumannii ATCC 19606 assessed as change in width of cellular dimension at mid-log phase at 32 ug/ml after 20 mins by atomic force microscopic analysis.
Assay [6] has as its system Acinetobacter baumannii. Kind of assay: Effect on morphological changes in colistin-susceptible Acinetobacter baumannii ATCC 19606 assessed as change in average root mean squared surface roughness at stationary phase at 0.5 ug/ml after 20 mins by atomic force microscopic analysis.
Assay [7] concerns Acinetobacter baumannii. Kind of assay: Effect on morphological changes in colistin-susceptible Acinetobacter baumannii ATCC 19606 assessed as change in average root mean squared surface roughness at mid-log phase at 32 ug/ml after 20 mins by atomic force microscopic analysis.
Assay [8] has as its system Acinetobacter baumannii. Nature of the assay: Effect on morphological changes in colistin-susceptible Acinetobacter baumannii ATCC 19606 assessed as change in length of cellular dimension at mid-log phase at 0.5 ug/ml after 20 mins by atomic force microscopic analysis.
The test system of assay [9] is Acinetobacter baumannii. Kind of assay: Effect on morphological changes in colistin-susceptible Acinetobacter baumannii ATCC 19606 assessed as change in average root mean squared surface roughness at stationary phase at 4 ug/ml after 20 mins by atomic force microscopic analysis.
The subject of assay [10] is Acinetobacter baumannii. Kind of assay: Effect on morphological changes in colistin-susceptible Acinetobacter baumannii ATCC 19606 assessed as change in width of cellular dimension at mid-log phase at 4 ug/ml after 20 mins by atomic force microscopic analysis.
The test system of assay [11] is Acinetobacter baumannii. Nature of the assay: Effect on morphological changes in colistin-susceptible Acinetobacter baumannii ATCC 19606 assessed as change in average root mean squared surface roughness at mid-log phase at 4 ug/ml after 20 mins by atomic force microscopic analysis.
For assay [12], the system named is Acinetobacter baumannii. Kind of assay: Effect on morphological changes in colistin-susceptible Acinetobacter baumannii ATCC 19606 assessed as change in length of cellular dimension at mid-log phase at 4 ug/ml after 20 mins by atomic force microscopic analysis.

Consider COLISTIN SULFATE, for which the Activity in assay [1] is 1.59 µM; in assay [2] it was 8.64 nm; in [3] it was 15.3 nm; in [4] it was 1.03 µM; in assay [5], 0.97 µM; in assay [6], 7.81 nm. For the same sequence, the Activity was found to be 19.8 nm in [7]; 1.63 µM in [8]; 16.7 nm in assay [9]; 0.94 µM in assay [10]; 13.5 nm in assay [11]; 1.44 µM in assay [12].
